Test results from patent publication US7045533B2, “Naphthalene derivatives” (Novartis AG, priority 2000, dated 2006).

By UniProt entry, the sequences of proteins in these tests, tags left out.
UniProt P21554, whole entry: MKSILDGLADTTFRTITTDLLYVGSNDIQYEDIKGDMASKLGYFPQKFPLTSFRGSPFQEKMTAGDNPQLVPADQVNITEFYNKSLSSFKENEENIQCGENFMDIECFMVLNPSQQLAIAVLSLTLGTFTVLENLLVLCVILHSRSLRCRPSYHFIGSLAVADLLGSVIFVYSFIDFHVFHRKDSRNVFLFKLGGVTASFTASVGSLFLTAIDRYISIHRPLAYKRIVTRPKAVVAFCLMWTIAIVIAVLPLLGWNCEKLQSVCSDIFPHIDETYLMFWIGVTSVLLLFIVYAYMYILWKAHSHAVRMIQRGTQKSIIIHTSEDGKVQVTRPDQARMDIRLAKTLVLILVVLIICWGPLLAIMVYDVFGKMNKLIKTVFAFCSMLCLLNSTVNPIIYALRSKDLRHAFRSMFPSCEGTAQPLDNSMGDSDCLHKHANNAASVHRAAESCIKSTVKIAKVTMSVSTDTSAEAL

Target: T1, human CB1 receptors (Homo sapiens, UniProt P21554)
T1 construct: purchased Receptor Biology, Beltsville, Md; host or cells: pEAK cells (transfected)
Assay: Test I: CB1 Receptor Binding Assay
Settings: [3H]CP55940 displacement, membranes from pEAK cells transfected with human CB1 receptors; Ki calculated from IC50 (Cheng-Prussoff); read-out: K1

How did the Ki turn out when `CCCCCOc1ccc(C(=O)c2cccc3ccccc23)c2ccccc12` [Example 1, naphthalen-1-yl-(4-pentyloxy-naphthalen-1-yl)-methanone] was run?
Its Ki is 15 ± 4 nM.
